Source: patent US20100249164A1, “MODULATION OF SLEEP WITH NR2B RECEPTOR ANTAGONISTS” (priority 2007, published 2010)

System: Sprague Dawley rats
Settings: in vivo, po, 25 mg/kg

Cc1ccc(COC(=O)N2CCC(CNc3ncccn3)CC2)cc1
activity in preclinical rat sleep model: active
